The nature of this data set: Physical/chemical properties of XBC4 (GlykoSol).

Molecules are shown by their SMILES.

Take `CCCCOCCOC(=O)OCCOCCCC` [XBC4, bis(2-ButoxyEthyl Carbonate)]: the “Lower Explosive Limit (LEL %)” value stood at 0.40% and the “Upper Explosive Limit (UEL %)” value was 7.31%.

Values taken from patent publication US10975016B2, “Solvent compounds for use as glycol ether replacements” (TBF ENVIRONMENTAL TECHNOLOGY INC., priority 2017, dated 2021).
